The values below come from US20110046079A1, “Use of Proton Pump Inhibitors as Drug Delivery Adjuvants” (priority 2008, published 2011).

The assay deals with rat gastric corpus mucosa. In words: Transepithelial flux of 14C-labeled probes (mannitol, sucrose, polyethylene glycol) before and after PPI. The conditions noted are these: 0.1 mM 14C-labeled probe, after 200 μM omeprazole. As for the experimental part: In each experiment, one adult male Sprague Dawley rat was sacrificed by decapitation. The stomach was removed, flushed, and stripped of its outer serosal membrane, while being frequently moistened with chilled, unbuffered saline. Two pieces of corpus mucosa were mounted in modified Ussing chambers, with exposed tissue surface area of 1.13 cm^2. Chambers were connected to gas-lift reservoirs, with a fluid volume of 17 mL per hemichamber. The mucosal hemichamber was filled with unbuffered saline (with 17 mM glucose) and kept aerated and perfused with 100% O2 at 37° C. […] Water-jacketed reservoirs maintained chamber saline at 37° C.
KRB was adjusted to a pH of 7.3-7.4.
Unbuffered saline was gassed with 100% O2 and was used to bathe the mucosal side of the gastric mucosa.
Approximately 30 minutes after tissues were mounted in Ussing chambers, dibutyrl cyclic AMP (dB-cAMP) (Sigma, St. Louis, Mo.) was added to the serosal sides of both chambers to a concentration of 1 mM in order to stimulate acid output by the tissue.
Three experiments were performed with each PPI, examining gastric permeability to ^14C-mannitol.
Three experiments were performed at each omeprazole concentration.

Consider `OC[C@H]1O[C@@](CO)(O[C@H]2O[C@H](CO)[C@@H](O)[C@H](O)[C@H]2O)[C@@H](O)[C@@H]1O` [Sucrose], for which the “% Increase in Flux” value was 118.17 +/− 26.26%. The “% Increase in Flux” value (listed as 14C-sucrose) is given as 118.17%.
